Data taken from patent US20050214310A1 (priority 2004, published 2005).
pIC50: −log10 of the molar value. Values joined by “and” are separate entries in the source; they are usually repeats but may differ in a detail not shown here. Identical values can stand only once.

tested on: H3677 melanoma cell line; format: cell-based

With Mel-D-Phe-NH2 as the substance, how does the pIC50 read?
Its pIC50 is 5.57.

How did the pIC50 turn out when Mel-L-Phe-NH2 was run?
The pIC50 was 7.52 and 7.40.

How did the pIC50 turn out when “Melphalan Menthol Ester [melphalan menthyl ester]” was run?
The pIC50 was 4.55.
